This experiment addresses human T-type calcium channels (human Cav3.2) (Homo sapiens (Human), UniProt O95180). The experiment can be described thus: Antagonistic activity against T-type calcium channels (Cav3.2), Fura2 intracellular calcium assay in HEK293 cells. The experiment is classed as cell-based. The conditions noted are these: HEK293 cells stably expressing human Cav3.2; Fura2 fluorescence ratio after calcium chloride addition. (Calcium assays in cells follow changes in intracellular calcium, usually with a dye or a luminescent sensor.)

By UniProt entry, the sequences of proteins in these tests, tags left out.
UniProt O95180, whole entry: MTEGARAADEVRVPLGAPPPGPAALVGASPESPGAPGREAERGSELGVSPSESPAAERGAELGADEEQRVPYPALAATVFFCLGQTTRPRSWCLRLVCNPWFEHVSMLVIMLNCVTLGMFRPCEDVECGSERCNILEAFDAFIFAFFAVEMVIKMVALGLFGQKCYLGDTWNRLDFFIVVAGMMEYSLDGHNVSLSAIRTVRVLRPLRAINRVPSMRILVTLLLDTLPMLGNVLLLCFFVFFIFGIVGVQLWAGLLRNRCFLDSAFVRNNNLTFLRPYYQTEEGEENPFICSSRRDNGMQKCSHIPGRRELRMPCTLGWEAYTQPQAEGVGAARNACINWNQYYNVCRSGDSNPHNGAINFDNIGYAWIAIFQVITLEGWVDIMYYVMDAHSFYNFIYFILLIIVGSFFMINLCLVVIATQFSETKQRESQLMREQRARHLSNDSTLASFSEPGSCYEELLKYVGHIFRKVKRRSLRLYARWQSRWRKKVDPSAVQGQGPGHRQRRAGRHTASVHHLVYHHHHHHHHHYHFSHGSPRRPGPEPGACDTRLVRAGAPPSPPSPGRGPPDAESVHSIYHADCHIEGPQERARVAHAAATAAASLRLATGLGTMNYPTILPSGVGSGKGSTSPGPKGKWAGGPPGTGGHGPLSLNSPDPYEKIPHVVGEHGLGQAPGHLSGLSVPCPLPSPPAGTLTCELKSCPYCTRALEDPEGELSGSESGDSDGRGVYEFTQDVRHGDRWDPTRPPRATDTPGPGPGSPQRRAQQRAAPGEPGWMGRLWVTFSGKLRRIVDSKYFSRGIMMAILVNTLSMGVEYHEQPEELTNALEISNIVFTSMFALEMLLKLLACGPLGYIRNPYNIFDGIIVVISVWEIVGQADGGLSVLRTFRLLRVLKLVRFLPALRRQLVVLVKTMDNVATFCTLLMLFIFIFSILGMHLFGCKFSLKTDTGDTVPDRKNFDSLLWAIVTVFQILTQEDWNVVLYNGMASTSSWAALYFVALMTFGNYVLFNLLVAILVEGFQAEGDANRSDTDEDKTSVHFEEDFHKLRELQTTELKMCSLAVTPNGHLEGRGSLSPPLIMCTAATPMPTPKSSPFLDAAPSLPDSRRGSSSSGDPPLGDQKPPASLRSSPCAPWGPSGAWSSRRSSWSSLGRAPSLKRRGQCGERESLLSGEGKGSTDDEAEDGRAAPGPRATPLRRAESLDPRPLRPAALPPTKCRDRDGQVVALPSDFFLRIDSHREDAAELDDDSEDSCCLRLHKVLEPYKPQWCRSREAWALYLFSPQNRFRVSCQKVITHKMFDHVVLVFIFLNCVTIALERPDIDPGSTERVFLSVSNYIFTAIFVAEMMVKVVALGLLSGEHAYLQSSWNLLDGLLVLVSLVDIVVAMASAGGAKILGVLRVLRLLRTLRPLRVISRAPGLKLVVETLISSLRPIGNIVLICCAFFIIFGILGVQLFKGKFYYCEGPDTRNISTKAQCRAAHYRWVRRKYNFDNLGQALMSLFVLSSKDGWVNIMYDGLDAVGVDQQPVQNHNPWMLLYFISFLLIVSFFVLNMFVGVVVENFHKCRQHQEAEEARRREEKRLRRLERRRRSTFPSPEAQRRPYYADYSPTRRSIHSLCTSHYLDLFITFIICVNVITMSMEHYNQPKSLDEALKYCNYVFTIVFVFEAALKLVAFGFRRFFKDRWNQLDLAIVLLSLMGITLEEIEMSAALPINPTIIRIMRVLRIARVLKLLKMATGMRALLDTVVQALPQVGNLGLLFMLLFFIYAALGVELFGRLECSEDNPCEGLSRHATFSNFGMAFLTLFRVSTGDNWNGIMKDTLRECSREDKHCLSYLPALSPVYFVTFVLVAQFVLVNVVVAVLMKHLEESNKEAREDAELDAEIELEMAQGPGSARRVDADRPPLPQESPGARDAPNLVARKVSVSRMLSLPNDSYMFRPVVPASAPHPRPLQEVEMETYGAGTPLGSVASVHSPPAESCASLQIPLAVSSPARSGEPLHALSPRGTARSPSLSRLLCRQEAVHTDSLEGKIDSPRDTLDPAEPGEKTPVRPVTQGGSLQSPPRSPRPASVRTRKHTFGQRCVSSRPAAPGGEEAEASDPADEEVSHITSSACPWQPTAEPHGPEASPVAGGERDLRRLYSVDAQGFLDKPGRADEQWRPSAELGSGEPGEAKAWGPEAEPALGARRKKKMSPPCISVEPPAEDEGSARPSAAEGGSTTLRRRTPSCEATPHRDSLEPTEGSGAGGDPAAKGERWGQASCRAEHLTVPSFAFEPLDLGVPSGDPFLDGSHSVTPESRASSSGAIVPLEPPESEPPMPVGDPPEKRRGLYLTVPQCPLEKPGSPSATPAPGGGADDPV

Each structure is given as a SMILES string.

With `Cn1nc(C(F)(F)F)cc1C(=O)NC[C@@H]1C[C@H]2CC[C@@H](C1)N2CC(=O)NC(C)(C)C`, the IC50 was found to be 49 nM.

By IC50 is commonly meant the concentration that gives 50% inhibition.

The values above are taken from patent US9856250B2, “Substituted tropane derivatives” (TOA EIYO LTD., priority 2014, dated 2018).
